Reference: patent US20240262814A1, “MODULATORS OF TREX1” (Constellation Pharmaceuticals, Inc., priority 2021, published 2024)

Chains of the proteins cited; added tags and fusions are not shown.
UniProt Q9NSU2, whole entry: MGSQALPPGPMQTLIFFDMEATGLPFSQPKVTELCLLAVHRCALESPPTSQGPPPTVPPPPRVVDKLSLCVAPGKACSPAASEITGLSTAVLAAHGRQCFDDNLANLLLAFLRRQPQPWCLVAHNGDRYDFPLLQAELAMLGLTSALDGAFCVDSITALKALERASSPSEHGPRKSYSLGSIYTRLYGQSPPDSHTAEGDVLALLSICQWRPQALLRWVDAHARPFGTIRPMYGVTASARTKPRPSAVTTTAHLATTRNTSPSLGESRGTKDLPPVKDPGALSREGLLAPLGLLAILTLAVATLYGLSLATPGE
UniProt Q91XB0, whole entry: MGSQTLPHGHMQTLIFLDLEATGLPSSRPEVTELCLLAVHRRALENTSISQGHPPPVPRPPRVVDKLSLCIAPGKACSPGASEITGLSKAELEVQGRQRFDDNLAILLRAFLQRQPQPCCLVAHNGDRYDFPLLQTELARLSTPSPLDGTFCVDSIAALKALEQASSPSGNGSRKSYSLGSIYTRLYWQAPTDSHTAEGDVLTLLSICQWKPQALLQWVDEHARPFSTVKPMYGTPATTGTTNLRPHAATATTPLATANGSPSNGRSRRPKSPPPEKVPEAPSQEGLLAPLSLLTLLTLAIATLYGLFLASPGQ
UniProt Q9BQ50, whole entry: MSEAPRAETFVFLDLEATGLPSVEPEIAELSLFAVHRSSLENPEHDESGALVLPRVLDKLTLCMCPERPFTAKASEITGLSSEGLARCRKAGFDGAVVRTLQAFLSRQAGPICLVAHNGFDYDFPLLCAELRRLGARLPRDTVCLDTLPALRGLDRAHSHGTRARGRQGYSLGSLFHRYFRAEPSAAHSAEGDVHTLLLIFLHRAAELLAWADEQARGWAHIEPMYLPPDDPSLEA

How the values were obtained:
human TREX1 = human TREX1 (Homo sapiens, UniProt Q9NSU2); test: hTREX1 Biochemical Assay (fluorescence, dsDNA substrate degradation); conditions: read-out: hTREX1 IC50; full length human TREX1, 4 h pre-incubation, 18 h reaction at 25° C.
Experimental: Degradation of the dsDNA liberates free fluorophore to produce a fluorescent signal. Specifically, 7.5 μL of N-terminally His-Tev tagged full length human TREX1 (expressed in E. coli and purified in house) in reaction buffer (50 mM Tris, 150 mM NaCl, 2 mM DTT, 0.1 mg/mL BSA, 0.01% (w/v) Tween-20, 5 mM MgCl2, pH 7.4) was added to a 384-well Black ProxiPlate Plus (PerkinElmer) which already contained compound (150 nL) at varying concentrations as a 10 point dose-response in DMSO. The plate was incubated at 25° C. for 4 hours. Reactions were initiated by adding 7.5 μL of dsDNA substrate (Strand A: 5′ TEX615/GCT AGG CAG 3′; Strand B: 5′ CTG CCT AGC/IAbRQSp (Integrated DNA Technologies)) in reaction buffer. Final concentrations were 4 pM TREX1, 60 nM dsDNA substrate in reaction buffer with 1.0% DMSO (v/v). After 18 hours at 25° C., reactions were quenched by the addition of 2 p L of 500 mM EDTA. […] After a 5-minute incubation at room temperature, plates were read in an EnVision plate reader (PerkinElmer) measuring fluorescence at 615 nm following excitation w/ 570 nm light. IC50 values were calculated by comparing the measured fluorescence at 615 nm relative to control wells pre-quenched w/ EDTA (100% inhibition) and no inhibitor (0% inhibition) controls as using non-linear least square four parameter fits and either Genedata or GraphPad Prism (GraphPad Software, Inc.).

mouse TREX1 = mouse TREX1 (Mus musculus, UniProt Q91XB0); test: mTREX1 Biochemical Assay (fluorescence, dsDNA substrate degradation); conditions: read-out: mTREX1 IC50; full length mouse TREX1, 4 h pre-incubation, 18 h reaction at 25° C.
Experimental: Degradation of the dsDNA liberates free fluorophore to produce a fluorescent signal. Specifically, 7.5 p L of N-terminally His-Tev tagged full length mouse TREX1 (expressed in E. coli and purified in house) in reaction buffer (50 mM Tris, 150 mM NaCl, 2 mM DTT, 0.1 mg/mL BSA, 0.01% (w/v) Tween-20, 5 mM MgCl2, pH 7.4) was added to a 384-well Black ProxiPlate Plus (PerkinElmer) which already contained compound (150 nL) at varying concentrations as a 10 point dose-response in DMSO. The plate was incubated at 25° C. for 4 hours. Reactions were initiated by adding 7.5 μL of dsDNA substrate (Strand A: 5′ TEX615/GCT AGG CAG 3′; Strand B: 5′ CTG CCT AGC/IAbRQSp (Integrated DNA Technologies)) in reaction buffer. […] Final concentrations in the quenched reaction were 5.3 pM TREX1, 53 nM DNA and 59 mM EDTA in a volume of 17 p L. After a 5-minute incubation at room temperature, plates were read in an EnVision plate reader (PerkinElmer) measuring fluorescence at 615 nm following excitation w/ 570 nm light. IC50 values were calculated by comparing the measured fluorescence at 615 nm relative to control wells pre-quenched w/ EDTA (100% inhibition) and no inhibitor (0% inhibition) controls as using non-linear least square four parameter fits and either Genedata or GraphPad Prism (GraphPad Software, Inc.).

human TREX2 = human TREX2 (Homo sapiens, UniProt Q9BQ50); test: hTREX2 Biochemical Assay (selectivity hTREX1 vs hTREX2); conditions: biochemical selectivity for hTREX1 vs hTREX2
Experimental: Degradation of the dsDNA liberates free fluorophore to produce a fluorescent signal. Specifically, 7.5 p L of N-terminally His-Tev tagged human TREX2 (residues M44-A279, expressed in E. coli and purified in house) in reaction buffer (50 mM Tris, 150 mM NaCl, 2 mM DTT, 0.1 mg/mL BSA, 0.01% (w/v) Tween-20, 5 mM MgCl2, pH 7.4) was added to a 384-well Black ProxiPlate Plus (PerkinElmer) which already contained compound (150 nL) at varying concentrations as a 10 point dose-response in DMSO. The plate was incubated at 25° C. for 4 hours. Reactions were initiated by adding 7.5 μL of dsDNA substrate (Strand A: 5′ TEX615/GCT AGG CAG 3′; Strand B: 5′ CTG CCT AGC/IAbRQSp (IDT)) in reaction buffer. Final concentrations were 50 pM TREX2, 60 nM dsDNA substrate in reaction buffer with 1.0% DMSO (v/v). After 18 hours at 25° C., reactions were quenched by the addition of 2 μL of 500 mM EDTA. […] After a 5-minute incubation at room temperature, plates were read in an EnVision plate reader (PerkinElmer) measuring fluorescence at 615 nm following excitation w/ 570 nm light. IC50 values were calculated by comparing the measured fluorescence at 615 nm relative to control wells pre-quenched w/ stop buffer (100% inhibition) and no inhibitor (0% inhibition) controls as using non-linear least square four parameter fits and either Genedata or GraphPad Prism (GraphPad Software, Inc.).

In the case of `CC(c1nc(C(=O)Nc2cnoc2)c(O)c(=O)n1C)C(c1ccccc1C#N)c1ccccc1C#N` (single isomer, unassigned) [Example 4 Isomer 2], the IC50 (human TREX1) is reported as 1 to 10 nM, the IC50 (mouse TREX1) is reported as greater than 10 nM and the “hTREX1 vs hTREX2 selectivity” value (human TREX2) is reported as “C (C = >50 fold selective for hTREX1)”.
